## Binding of CDR-mutated scFvs to a peptide of the spike HR2 region

Source: Li et al. 2023 (doi:10.1038/s41467-023-39022-2), MIT Lincoln Laboratory and A-Alpha Bio; data file from the FLAb repository.

Antigen: PDVDLGDISGINAS, a 14-residue peptide of the SARS-CoV-2 spike HR2 region.

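Phage display of a naive human antibody library on the peptide gave the parent. This is the validation round: designs drawn from the data on random variants, tested in the same kind of assay. Several design methods are mixed in this list. AlphaSeq pools MATa yeast showing the antibodies with MATalpha yeast showing the peptide. After mating in shaken culture at 30 °C for 16 h, diploids were selected and their barcode pairs sequenced. Scores were corrected for input abundance and mapped to Kd with protein pairs of known affinity run in the same pool. The assay was run in six technical replicates.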

The variants keep the heavy chain, the linker and the frameworks of Ab-14 (scFv order VH, a 15-residue (Gly4Ser)3 linker, VL).
VH: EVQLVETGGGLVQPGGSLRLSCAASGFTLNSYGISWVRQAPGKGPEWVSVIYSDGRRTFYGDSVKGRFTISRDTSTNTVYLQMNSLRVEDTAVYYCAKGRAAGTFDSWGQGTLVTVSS
VL: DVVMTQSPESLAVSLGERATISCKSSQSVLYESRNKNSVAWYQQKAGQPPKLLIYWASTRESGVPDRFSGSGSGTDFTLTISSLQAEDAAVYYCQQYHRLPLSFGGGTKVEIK

The parent's light chain CDRs are KSSQSVLYESRNKNSVA, WASTRES, QQYHRLPLS; each variant's own CDRs replace them letter for letter. Kd is apparent (estimated from mating counts) and averaged on the log scale over replicates with a signal. Smaller is tighter. A pair that was not seen in any replicate is written "no signal"; this usually means weak binding, but a binder can also be missed.

| CDR-L1 | CDR-L2 | CDR-L3 | Kd (apparent) | replicates with signal | control signals |
|---|---|---|---|---|---|
| KSSQSVLYPSRNKNSVA | EASTRES | QQYHRLPLS | 3.0 nM | 6/6 | 1/18 |
| KLSISELIESRNKNSVA | EASTRES | QQYHRLPLS | 1.4 nM | 6/6 | 0/18 |
| KSSNSVLFESRNKNSVA | GASTREQ | QQYHRLPLS | 590 pM | 6/6 | 0/18 |
| MVTQMAMTGMMSKRSVA | NATTREY | QQYHRLPLI | 23 nM | 6/6 | 1/18 |
| KSSQSVLYESRNHNSVA | MASTRES | QQYHRLPLS | 90 nM | 6/6 | 0/18 |
| KSEQSSPYEDRNKNSVA | NASLRCS | QQYHRLPLS | 1.9 nM | 6/6 | 0/18 |
| IVSQLMLWGLHAKNSIA | EAQMRLN | QQYDRLPLF | 4.4 nM | 6/6 | 0/18 |
| KMEQGWLYESRNKGSVA | GASVRES | QQYHRLPLS | 1.8 nM | 6/6 | 2/18 |
| KLSQSVLYESRNMNSVA | WASTRES | QQYHRLPLS | 4.1 nM | 6/6 | 0/18 |
| KISMLQRFQSHAKNNIA | EMSRREE | QQYHRLPLS | 2.1 nM | 6/6 | 1/18 |
| HLGWATMLEETVRNSVA | NNSTRED | QQYDRLPLS | 18 nM | 6/6 | 0/18 |
| ILAENSDDITEKQNSIA | ETQMVYS | QQYHRLPLA | no signal | 0/6 | 0/18 |
| KSSQSVLYEDRNKNSVA | WASTRES | QQYHRLPLS | 110 nM | 5/6 | 0/18 |
| KISISYLGEKRNKNSVA | EASTRMS | QQYHRLPLS | 2.8 nM | 6/6 | 0/18 |
| KVSQSVLYESRNKPSVA | WASTRES | QQYHRLFLS | no signal | 0/6 | 0/18 |
| KLSMVTGHMSVSKNNVA | EMETRVN | QQYDRLPLS | 2.6 nM | 6/6 | 1/18 |
| KISQAVNYLSRVMNSVA | DNSTRGD | QQYFRLPLS | 26 nM | 1/6 | 0/18 |
| KLSQSWLYESRNKNSVA | NGSTRES | QQYHRLPLS | 2.3 nM | 6/6 | 5/18 |
| KMSQSDLYESRNKNSVA | KASTRES | QQYHRLPLS | 1.4 nM | 6/6 | 1/18 |
| VLGQNCSEYDMYCASIA | DAQHREA | QQYYRLPFV | 57 nM | 6/6 | 0/18 |
| KSSQSVLYELRNANSVA | RASTRES | QQYHRLPLS | 80 nM | 6/6 | 1/18 |
| KISQSQLYEDRNHWSVA | NASTRCS | QQYHRLPLS | 1.9 nM | 6/6 | 1/18 |
| HITYGMMVAGRHSSSIA | QAETRAK | QQYDRLPLM | 4.1 nM | 6/6 | 3/18 |
| KFSQSVLYESRNKNAVA | EASTRES | QQYHRLPLS | 4.7 nM | 6/6 | 2/18 |
| KLPQSDLYESRNKNSVA | HASTRES | QQYHRLPLS | 620 pM | 6/6 | 2/18 |
| KLSMSMLMESFHKNSVA | ENNTREE | QHYHRLPLS | no signal | 0/6 | 1/18 |
| NISESMYYQSRNKNNIA | EMSTRER | QHYHRLPLS | 3.1 nM | 6/6 | 1/18 |
| KSSQSVLYESRMKNSVA | WASTRSS | QQYHRLPLS | 82 nM | 6/6 | 1/18 |
| MSSQSVLYESRNKNSVA | QASTRES | QQYHRLPLS | 8.7 nM | 6/6 | 1/18 |
| KLSQSNLYESRNKNNVA | DASTRES | QQYHRLPLS | 330 pM | 6/6 | 1/18 |
| KLQQSWLYESRNKNSVA | HASTRLS | QQYHRLPLS | 6.5 nM | 6/6 | 2/18 |
| KVSQSWLYESRNKNNVA | NASQRES | QQYHRLPLS | 490 pM | 6/6 | 5/18 |
| KFSQFVLYESRNKNSVA | WASTRES | QQYHRWPLS | no signal | 0/6 | 1/18 |
| KSSQSVLIESFNKNSVA | WASTRES | QHYHRLPLS | 460 nM | 2/6 | 2/18 |
| SVAMLLDQQYAKGANIA | NAAELVV | QQYYRLPLT | no signal | 0/6 | 0/18 |
| KVSEFMRGLMKMKDSIA | DNETRPN | QQYDRLPLS | 120 nM | 6/6 | 1/18 |
| KVSISYLLESRNKNSVA | NASTRES | QQYHRLPLS | 1.9 nM | 6/6 | 0/18 |
| MISQLFMYGLRNYNSVA | QASTRES | QQYDRLPLI | 120 nM | 4/6 | 0/18 |
| KSSQSVLYESLNKNSVA | WASTRES | QQYHRNHLS | no signal | 0/6 | 2/18 |
| TISQMTSWMSNKKNNVA | EVSLREE | QQYDRLPLS | 5.2 nM | 6/6 | 3/18 |
| KSSQSVMYESRNKNSVA | AASTRES | QEYHRLPLS | 30 nM | 6/6 | 0/18 |
| KSSQSVLYESRNKNSVA | EASTREP | QQYHRLPLE | 2.8 nM | 6/6 | 2/18 |
| MISQLMNMGQFAINSVA | QAEIRNA | QQYDRLPLI | no signal | 0/6 | 0/18 |
| KLYQSEGYESRMDNNVA | NASLRES | QQYHRLPLS | 1.7 nM | 6/6 | 6/18 |
| KISQAFLYESRNKNSVA | DANTRES | QQYHRLPLS | 610 pM | 6/6 | 1/18 |
| KLSQVTHSESRNKNSIA | EMVTREV | QQYDRLPLV | 13 nM | 6/6 | 0/18 |
| NFSQMVLSGSTLRNSVA | HASTRFN | QQYHRLPLI | 550 nM | 5/6 | 0/18 |
| TIGQMFNGELRNRNSVA | QASTRES | QSYDRLPLS | 3.7 nM | 6/6 | 0/18 |
| KLMQEWLYESRLANSVA | NASTRLE | QQYHRLPLS | 3.5 nM | 6/6 | 0/18 |
| MVTQMAMSGMTNKRSVA | NAETREY | QQYNRLPLI | 340 pM | 6/6 | 0/18 |
| KLVGPDDNDNQDMRAVA | DENTLGN | QQYHRLPLG | 41 nM | 6/6 | 0/18 |
| KSSQSTLYESRNWNSVA | KAVTRES | QQYHRLPLS | 13 nM | 6/6 | 2/18 |
| KLEQSVLYESRNKNSVA | HASTRED | KQYHRLPLS | 1.5 nM | 6/6 | 1/18 |
| KSLQSQEYESRNKNSVA | HASTRED | QQYHVLPLS | 630 pM | 6/6 | 0/18 |
| SFHEINMEGLATNANVA | NASQLFE | QHYFRLPLQ | 15 nM | 6/6 | 0/18 |
| KSEQSEPYESRNKNSVA | NASTRES | QQYHRLPLS | 740 pM | 6/6 | 0/18 |
| KWQGSWLYSSRNKNSVA | EGSTRES | QQYHRLPLS | 6.9 nM | 6/6 | 0/18 |
| KSSQSVLYESRNKNSVA | WASMREV | QQYHRLPLS | no signal | 0/6 | 0/18 |
| MIAESVGYQSRNKNSVA | DNSTREY | QCYDRLPLS | no signal | 0/6 | 0/18 |
| KLQQSMLYESRNKNSVA | SASTRES | QQYHRLPLS | 1.0 nM | 6/6 | 0/18 |
| KSSISCLYESMNKNSVA | EASTRES | QQYHRLPLS | 3.9 nM | 6/6 | 2/18 |
| SVAMLLGQQYAKGANIA | EAAELVV | QQYYRLPLT | 20 nM | 6/6 | 1/18 |
| KLSGLMQSSKFAKDNVA | ENNTRED | QQYDRLPLS | 200 nM | 2/6 | 1/18 |
| KSSQGVLYESENKNSVA | WASTRES | QQYHRLPLS | 79 nM | 6/6 | 0/18 |
| HMSQSWLMESRNSNSVA | DASTRLS | QQYHRLPLS | 940 pM | 6/6 | 1/18 |

Again, the first 4 entries without any signal:

| CDR-L1 | CDR-L2 | CDR-L3 | Kd (apparent) | replicates with signal | control signals |
|---|---|---|---|---|---|
| ILAENSDDITEKQNSIA | ETQMVYS | QQYHRLPLA | no signal | 0/6 | 0/18 |
| KVSQSVLYESRNKPSVA | WASTRES | QQYHRLFLS | no signal | 0/6 | 0/18 |
| KLSMSMLMESFHKNSVA | ENNTREE | QHYHRLPLS | no signal | 0/6 | 1/18 |
| KFSQFVLYESRNKNSVA | WASTRES | QQYHRWPLS | no signal | 0/6 | 1/18 |

Values of this round are not directly comparable with the first-round values of the same sequences. Of ten entries with the parent sequence, four were seen in most replicates (averages 2.2 nM to 240 nM), three in one and three in none, so single entries are noisy. Three control strains display no target. For all light chain designs, 4% of the pairings with them gave a signal, with a median of 430 nM and one signal in twenty below 38 nM, so weak values seen in few replicates may be background. For each scFv, signals with the empty controls are counted beside the result. In the paper, a design with two or fewer of six values counts as a poor binder.